Yeast mating assay 2: variants of the scFv Ab-95

The measurements come from Engelhart et al. 2022 (doi:10.1038/s41597-022-01779-4) through the FLAb antibody collection.

Target peptide (SARS-CoV-2 spike, HR2 region): PDVDLGDISGINAS

Ab-95 is the parent antibody, in scFv form: VH, then a (GGGGS)3 linker, then VL. The heavy chain is unchanged in all variants.
VH: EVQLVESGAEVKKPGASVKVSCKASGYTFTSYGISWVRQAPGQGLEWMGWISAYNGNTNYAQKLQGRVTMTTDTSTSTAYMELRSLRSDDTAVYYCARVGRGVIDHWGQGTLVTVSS
VL: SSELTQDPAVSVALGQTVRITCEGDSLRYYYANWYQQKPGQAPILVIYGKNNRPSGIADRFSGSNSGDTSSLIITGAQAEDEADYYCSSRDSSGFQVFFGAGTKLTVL

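Phage display of a naive human antibody library on the peptide gave the parent. The library (AAYL52) carries one to three amino acid substitutions per variant, with no insertions or deletions. The assay is AlphaSeq: two haploid yeast populations carry antibody and antigen on their surface. Binding brings cells together so that they mate, and sequencing counts the barcode pairs among the diploids. Scores were corrected for input abundance and mapped to Kd with protein pairs of known affinity run in the same pool. Mating was done three times.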

Variants are written as CDR1, CDR2 and CDR3 of the light chain (limits as in the source). Parent: EGDSLRYYYAN, GKNNRPS, SSRDSSGFQVF. Numbers give log10(Kd / nM), so 0 is 1 nM and 3 is 1 µM. Smaller is tighter. Averages over replicates are reported, and they cover detected replicates only. An entry "nd" has no value in the source: the pair was not observed among the diploids in any replicate. This suggests poor binding but is not conclusive. In this assay the parent's reference entry averaged 2.31; its copy inside this library read 2.25. Empty control strains, which show no peptide, gave a signal in 28% of pairings with library AAYL52; the median was 3.91 and 95% of these signals were weaker than 2.90. No background was subtracted.

| CDR-L1 | CDR-L2 | CDR-L3 | log10 Kd (nM), mean | replicates with signal |
|---|---|---|---|---|
| EGDSLRYYYAT | GKNNRPS | GSRDSSAFQVF | 3.71 | 2/3 |
| HGDRLRYYYAG | GKNNRPS | SSRDSSGFQVF | 2.04 | 3/3 |
| ETDSLRYYYAN | GKNNRPH | SSRDKSGFQVF | 3.16 | 3/3 |
| EVDSPRYYYAN | GKNNRPS | SSRDSGGFQVF | 4.12 | 2/3 |
| EYDHLRYYYAN | GKNNRPS | SSRDSSTFQVF | 4.15 | 2/3 |
| EGRSLRYYYAN | LKNNRPS | GSRDSSGFQVF | 3.97 | 2/3 |
| EGDSLRYYYAS | GKNNRPS | ASRDSSLFQVF | 2.99 | 3/3 |
| EGDSLRYWYAN | GKNSRPS | SSRDSSGFQVF | 2.94 | 3/3 |
| EGQKLRYYYAN | GKNNRPS | SSRDSSGFQVT | 4.44 | 2/3 |
| EGDSLVYYTAN | GKNNRPS | SSRASSGFQVF | 3.14 | 3/3 |
| EGDSLRYYLAN | GKDNRFS | SSRDSSGFQVF | nd | 0/3 |
| EGDSLRYYYAN | MKNNRPS | ESRDSSGFEVF | 3.89 | 2/3 |
| EGDSLRYYYAN | GKYNRPG | SSRDSSGFQAF | 4.07 | 1/3 |
| EVDSLRYYYAN | GVNNRPS | SSRDSSGFWVF | 3.76 | 1/3 |
| EGDSLRYYYAA | GKNYRPS | SSRDSSGFQVF | 3.46 | 2/3 |
| EGDSLRYYYAN | GNNYRPS | SSRDSSPFQVF | 2.44 | 3/3 |
| EGDSLQYYYAN | GKNNRPS | SSRDGSGFLVF | 3.22 | 3/3 |
| EGDSLRYYYAS | GKNNRPS | SSRDSFGFQVF | 4.21 | 3/3 |
| EGDSLRYIDAQ | GKNNRPS | SSRDSSGFQVF | 3.25 | 2/3 |
| GEDSLRYYYLN | GKNNRPS | SSRDSSGFQVF | 3.40 | 3/3 |
| EGDSLRYYYAG | GKNNRPS | SSRVSSGFQVF | 5.21 | 1/3 |
| EGDSLRRYYAN | GKNNRPS | SSRESSVFQVF | 2.42 | 3/3 |
| EGDSLRYYYQN | GKNNRPS | SSRDSSGFQHE | 3.47 | 1/3 |
| EGDSLRYYYAI | GKNNRPS | SSRDKPGFQVF | 2.94 | 2/3 |
| EGDYFRYVYAN | GKNNRPS | SSRDSSGFQVF | 2.85 | 3/3 |
| EGDDLRYYYAN | GGNNRPS | SSRDSSSFQVF | 3.35 | 3/3 |
| EGDSLRYYRAM | GMNNRPS | SSRDSSGFQVF | 3.35 | 3/3 |
| EIDSLRYYYKN | GKNNRPS | SSRDTSGFQVF | nd | 0/3 |
| EGDSLRQYYYN | GKNNRPS | SSRDMSGFQVF | 3.83 | 1/3 |
| EGDSLRYYYAN | GKNNRPS | SSRDSMRFQVH | 2.57 | 3/3 |
| EGDSHQYDYAN | GKNNRPS | SSRDSSGFQVF | 2.40 | 3/3 |
| AGDSLRYYYAN | GKNYRPS | SSRDSSGFQVF | 2.23 | 3/3 |
| EGDSLRYYYAN | RCNNRPS | SSRISSGFQVF | 5.21 | 2/3 |
| EGDSLRYYYAN | GEDNRES | SSRDSSGFQVF | 3.84 | 3/3 |
| KGDSLRYYYAN | GKNNRPS | GKRDSSGFQVF | 3.59 | 2/3 |
| EGDSLRYYYAN | GKNNRPA | SSRDSHYFQVF | 2.96 | 3/3 |
| EADSLRYYYAN | YKNNRPY | SSRDSSGFQVF | nd | 0/3 |
| EGDSLRYYRAN | GKNNGCS | SSRDSSGFQVF | 4.49 | 3/3 |
| EGDCLRYYYAN | GKNNRPS | ISRDSSGFQVF | 4.71 | 2/3 |
| EGDSGLYYYAN | GKNNRTS | SSRDSSGFQVF | 2.67 | 1/3 |
| EGDSLRYYYAN | GKNVRPW | SSRDSKGFQVF | 2.41 | 2/3 |
| EGDSLRYYYAN | GHNNRPS | SSRDSSGFTVF | 3.40 | 2/3 |
| EGDSWRYYYAN | GKVNRPS | TSRDSSGFQVF | 3.72 | 1/3 |
| EMDSLRYYYAN | GMNNRPS | SSPDSSGFQVF | nd | 0/3 |
| EGDSLRYYYAN | GKWNRPS | SSRDSSGFQCF | nd | 0/3 |
| ERDSLRYYYAN | GKNNRPS | SLRDSPGFQVF | 4.64 | 1/3 |
| EGDSLRYYYNN | GKNNRPS | SHRDSSGFQVI | 4.44 | 2/3 |
| EGKSLRYYFAN | GKNNRPH | SSRDSSGFQVF | 2.39 | 3/3 |
| VGDSLMYEYAN | GKNNRPS | SSRDSSGFQVF | 0.77 | 3/3 |
| EGDSLRYYYAN | GKNNRPS | WSRDSSGFIVF | 4.09 | 2/3 |
| EGDSLDYYYAN | GYNNRPS | SSRDSSGGQVF | nd | 0/3 |
| EGDSLSYYYAN | GKNQRPS | SSRYSSGFQVF | 2.78 | 3/3 |
| EGDNLRYYYAN | GKNNRPW | SSRDSSGFQVE | 3.17 | 3/3 |
| EGDSLRYYYNN | GKNNRPS | SSRDSSSGQVF | 3.44 | 2/3 |
| EGDSLRYYYAN | GKNNRPS | VSRDSLGFQVF | 4.38 | 2/3 |
| CGDSLRYYYQN | GKNNRPS | YSRDSSGFQVF | nd | 0/3 |
| EGDSLRYYYQN | GKNNRPQ | SSRDQSGFQVF | 4.42 | 3/3 |
| EGDSLRYEYAM | GKANRPS | SSRDSSGFQVF | 3.32 | 3/3 |
| EGDSLRYYYAN | GKNNRKS | SSRDSMGFQVF | 2.40 | 3/3 |
| EGDSLRYYYAN | GKNNRPS | HSRDASGYQVF | 3.87 | 1/3 |
| EGDSLRYYYAN | GMNDRPS | SSRDSSGFQSF | 3.08 | 3/3 |
| EGDSLRYYRAN | GKNNRPS | SSRDHSGFQRF | 2.32 | 3/3 |
| EGDSLRYYYAN | GKMNRPS | SSRQSSGFQQF | nd | 0/3 |
| EGDSSRYYYAN | GKNNRPS | SSRKSSGFSVF | 4.05 | 3/3 |
| EGDSARYYYAN | VKNNRPQ | SSRDSSGFQVF | nd | 0/3 |
| EGDSGRYYYAN | GKNNRPS | SSRDFCGFQVF | nd | 0/3 |
| EGDSLAYYYAN | GKNTRPS | SSRDSSGFAVF | 2.71 | 3/3 |
| EKDSLRYYYAN | GKNNWPS | SSVDSSGFQVF | nd | 0/3 |
| EGDSLSYYYAN | GKNNRPS | SSMDSSGFDVF | 3.91 | 2/3 |
| EGDSLRYYYAN | GKNMRPS | FVRDSSGFQVF | 2.58 | 3/3 |
| EGDSKRYYYAN | GENNRPS | YSRDSSGFQVF | 3.94 | 2/3 |
| EGDSLRAYYAN | GKPNRPS | SSRDSSQFQVF | 3.31 | 2/3 |
| EGDSLRPIYFN | GKNNRPS | SSRDSSGFQVF | 3.06 | 3/3 |
| CGDSLAYYYAN | GKNNRPS | SSRDSTGFQVF | 4.74 | 2/3 |
| EGISLRYYYQN | GKNNRPS | SSSDSSGFQVF | 4.37 | 1/3 |
| EGDSLRYYYAN | GKNNRPQ | SSRDSSWFQPF | 2.74 | 3/3 |
| EGDSLRYYYIN | GKNNRPS | SSRASSGFQVT | 4.59 | 1/3 |
| EGDSLRYYYAH | GKNNRPS | ESRDSSGPQVF | 3.98 | 1/3 |

Picked from the list: the 11 lowest averages where every replicate gave a value.

| CDR-L1 | CDR-L2 | CDR-L3 | log10 Kd (nM), mean | replicates with signal |
|---|---|---|---|---|
| VGDSLMYEYAN | GKNNRPS | SSRDSSGFQVF | 0.77 | 3/3 |
| HGDRLRYYYAG | GKNNRPS | SSRDSSGFQVF | 2.04 | 3/3 |
| AGDSLRYYYAN | GKNYRPS | SSRDSSGFQVF | 2.23 | 3/3 |
| EGDSLRYYRAN | GKNNRPS | SSRDHSGFQRF | 2.32 | 3/3 |
| EGKSLRYYFAN | GKNNRPH | SSRDSSGFQVF | 2.39 | 3/3 |
| EGDSHQYDYAN | GKNNRPS | SSRDSSGFQVF | 2.40 | 3/3 |
| EGDSLRYYYAN | GKNNRKS | SSRDSMGFQVF | 2.40 | 3/3 |
| EGDSLRRYYAN | GKNNRPS | SSRESSVFQVF | 2.42 | 3/3 |
| EGDSLRYYYAN | GNNYRPS | SSRDSSPFQVF | 2.44 | 3/3 |
| EGDSLRYYYAN | GKNNRPS | SSRDSMRFQVH | 2.57 | 3/3 |
| EGDSLRYYYAN | GKNMRPS | FVRDSSGFQVF | 2.58 | 3/3 |